Here are results for 12 compounds from ChEMBL document CHEMBL5214996, “Design, Synthesis, and Pharmacological Evaluation of Second-Generation Soluble Adenylyl Cyclase (sAC, ADCY10) Inhibitors with Slow Dissociation Rates” (J Med Chem, 2022).

By UniProt entry, the sequences of proteins in these tests, tags left out. Where a name states a change or a piece, a line headed by the entry shows the natural chain unless it says otherwise.
UniProt Q96PN6: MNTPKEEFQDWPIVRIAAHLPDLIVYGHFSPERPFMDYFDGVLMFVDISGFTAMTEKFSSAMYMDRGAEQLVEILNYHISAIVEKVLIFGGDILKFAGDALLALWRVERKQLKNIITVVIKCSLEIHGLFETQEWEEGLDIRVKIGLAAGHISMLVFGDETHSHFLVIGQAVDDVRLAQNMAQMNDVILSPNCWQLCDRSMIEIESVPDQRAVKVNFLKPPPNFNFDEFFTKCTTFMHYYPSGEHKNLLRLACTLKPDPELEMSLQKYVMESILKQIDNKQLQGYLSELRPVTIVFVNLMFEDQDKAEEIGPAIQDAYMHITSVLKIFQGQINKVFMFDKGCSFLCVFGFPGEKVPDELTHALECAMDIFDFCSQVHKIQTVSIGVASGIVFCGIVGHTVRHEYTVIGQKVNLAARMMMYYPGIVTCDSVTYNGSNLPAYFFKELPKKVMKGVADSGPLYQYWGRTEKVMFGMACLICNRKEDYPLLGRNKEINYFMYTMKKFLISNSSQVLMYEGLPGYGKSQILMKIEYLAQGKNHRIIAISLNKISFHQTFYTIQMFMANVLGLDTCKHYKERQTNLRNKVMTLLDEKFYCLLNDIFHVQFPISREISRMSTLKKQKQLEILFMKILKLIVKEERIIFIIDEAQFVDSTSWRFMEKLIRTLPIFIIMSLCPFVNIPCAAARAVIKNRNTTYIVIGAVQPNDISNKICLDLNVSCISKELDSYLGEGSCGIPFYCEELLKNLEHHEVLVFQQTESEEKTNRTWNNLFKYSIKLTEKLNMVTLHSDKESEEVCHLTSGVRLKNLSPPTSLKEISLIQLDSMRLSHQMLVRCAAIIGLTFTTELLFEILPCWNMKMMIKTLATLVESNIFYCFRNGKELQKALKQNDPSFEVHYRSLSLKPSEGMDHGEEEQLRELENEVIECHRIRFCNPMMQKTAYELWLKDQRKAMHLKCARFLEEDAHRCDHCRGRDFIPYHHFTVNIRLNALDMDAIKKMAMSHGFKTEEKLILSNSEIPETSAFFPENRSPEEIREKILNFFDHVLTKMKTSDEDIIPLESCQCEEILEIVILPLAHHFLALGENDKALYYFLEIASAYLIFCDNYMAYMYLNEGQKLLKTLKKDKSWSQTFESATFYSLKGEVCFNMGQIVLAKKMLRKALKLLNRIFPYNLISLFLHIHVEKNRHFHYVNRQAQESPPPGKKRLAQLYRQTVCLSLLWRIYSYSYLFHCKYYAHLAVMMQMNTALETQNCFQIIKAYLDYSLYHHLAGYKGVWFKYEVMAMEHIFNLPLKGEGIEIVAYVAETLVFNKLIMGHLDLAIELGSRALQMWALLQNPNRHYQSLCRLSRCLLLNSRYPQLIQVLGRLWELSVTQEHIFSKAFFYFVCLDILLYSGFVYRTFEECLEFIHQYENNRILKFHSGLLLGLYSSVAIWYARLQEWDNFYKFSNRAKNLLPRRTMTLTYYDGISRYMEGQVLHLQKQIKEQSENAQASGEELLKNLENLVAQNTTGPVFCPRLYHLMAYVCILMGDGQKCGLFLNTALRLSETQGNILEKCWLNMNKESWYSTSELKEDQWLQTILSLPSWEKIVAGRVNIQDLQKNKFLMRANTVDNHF

The target in assay [1] is T1, Adenylate cyclase type 10 (Homo sapiens, UniProt Q96PN6).
The target of assay [2] is T1, Adenylate cyclase type 10. This is another data set of the same source.

One may read the IC50 as the point on the concentration scale where inhibition reaches its midpoint. Read a high IC50 as lower potency. Usually Kd stands for a measure of binding affinity in units of concentration. A low value points to higher affinity. Regarding `Nc1nc(Cl)cc(-c2nn(C(F)F)cc2Cc2ccccc2OCCN2CCOCC2)n1`, it took 3.9 nM to reach half-maximal inhibition in assay [1] (IC50). In assay [2], this compound had a Kd of 3.3 nM. In assay [1], `CC1(O)CCN(CCOc2ccccc2Cc2cn(C(F)F)nc2-c2cc(Cl)nc(N)n2)CC1` gave an IC50 of 4 nM. Binding in assay [2] was put at a Kd of 3.6 nM. With `Cn1cc(Cc2ccccc2)c(-c2cc(Cl)nc(N)n2)n1`, in assay [1], inhibition was half-maximal at 1020 nM (IC50).

Turning to `Cn1cc(Cc2ccccc2OCCN2CCNC(=O)C2)c(-c2cc(Cl)nc(N)n2)n1`, in assay [1], the midpoint of inhibition, the IC50, lay at 16.9 nM. The same measure, in the same setting: next, `COC(=O)c1ccccc1Cc1cn(C)nc1-c1cc(Cl)nc(N)n1`: 21 nM; `Nc1nc(Cl)cc(-c2nn(C(F)(F)F)cc2Cc2ccccc2)n1`: 469 nM. On the same count and under the same terms, the same measure for `Cn1cc(Cc2ccccc2OCCN2CCOCC2)c(-c2cc(Cl)nc(N)n2)n1`: 12.3 nM; for `COC(=O)c1cccc(Cc2cn(C)nc2-c2cc(Cl)nc(N)n2)c1`: 436 nM; for `Cn1cc(Cc2ccccc2OCCN2CC3(COC3)C2)c(-c2cc(Cl)nc(N)n2)n1`: 7.8 nM. The same measure, in the same setting: the same measure for `Cn1cc(Cc2ccccc2Oc2ccccc2)c(-c2cc(Cl)nc(N)n2)n1`: 87.1 nM.

Compound `Nc1nc(Cl)cc(-c2nn(C(F)F)cc2Cc2ccccc2OCCN2CCNC(=O)C2)n1` registered an IC50 in assay [1] of 2.1 nM. The compound further displayed a dissociation constant Kd in assay [2] of 5.5 nM. `Cn1cc(Cc2ccccc2OCCN2CC3CC(C2)O3)c(-c2cc(Cl)nc(N)n2)n1` yielded an IC50 in assay [1] of 6.7 nM.
